Patent US20240217990A1 (Gilead Sciences, Inc., priority 2021, published 2024)

The chains behind the UniProt entries cited, without tags or fusion partners. Residues count along the entry.
UniProt Q9NYK1, 27-1049 limits assumed: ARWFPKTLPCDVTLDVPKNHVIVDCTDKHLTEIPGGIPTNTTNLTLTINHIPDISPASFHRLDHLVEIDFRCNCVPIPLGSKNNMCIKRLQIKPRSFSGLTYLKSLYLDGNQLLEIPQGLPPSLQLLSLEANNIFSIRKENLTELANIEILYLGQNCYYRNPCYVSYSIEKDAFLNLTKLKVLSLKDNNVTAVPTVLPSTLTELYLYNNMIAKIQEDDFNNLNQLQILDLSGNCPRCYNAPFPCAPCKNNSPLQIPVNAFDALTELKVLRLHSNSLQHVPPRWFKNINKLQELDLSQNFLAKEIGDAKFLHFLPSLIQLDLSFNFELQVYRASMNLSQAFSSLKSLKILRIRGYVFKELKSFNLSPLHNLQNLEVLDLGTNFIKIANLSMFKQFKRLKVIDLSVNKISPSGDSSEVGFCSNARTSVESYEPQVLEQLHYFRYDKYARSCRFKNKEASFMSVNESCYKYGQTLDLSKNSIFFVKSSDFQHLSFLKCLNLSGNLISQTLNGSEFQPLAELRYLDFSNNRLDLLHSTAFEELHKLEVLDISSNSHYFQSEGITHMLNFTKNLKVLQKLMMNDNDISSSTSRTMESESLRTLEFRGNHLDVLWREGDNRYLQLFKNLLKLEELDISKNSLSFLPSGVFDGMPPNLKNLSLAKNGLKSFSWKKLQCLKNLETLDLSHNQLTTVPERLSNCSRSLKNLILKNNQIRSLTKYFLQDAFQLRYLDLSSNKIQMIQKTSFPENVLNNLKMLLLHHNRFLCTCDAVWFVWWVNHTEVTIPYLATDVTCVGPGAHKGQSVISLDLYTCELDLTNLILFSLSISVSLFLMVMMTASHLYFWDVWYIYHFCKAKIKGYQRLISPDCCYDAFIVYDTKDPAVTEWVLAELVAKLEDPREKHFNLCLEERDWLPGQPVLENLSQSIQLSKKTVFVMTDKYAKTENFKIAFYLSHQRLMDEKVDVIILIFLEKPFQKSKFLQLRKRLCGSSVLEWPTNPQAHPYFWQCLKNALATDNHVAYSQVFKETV
UniProt Q9NR97, 27-1041 limits assumed: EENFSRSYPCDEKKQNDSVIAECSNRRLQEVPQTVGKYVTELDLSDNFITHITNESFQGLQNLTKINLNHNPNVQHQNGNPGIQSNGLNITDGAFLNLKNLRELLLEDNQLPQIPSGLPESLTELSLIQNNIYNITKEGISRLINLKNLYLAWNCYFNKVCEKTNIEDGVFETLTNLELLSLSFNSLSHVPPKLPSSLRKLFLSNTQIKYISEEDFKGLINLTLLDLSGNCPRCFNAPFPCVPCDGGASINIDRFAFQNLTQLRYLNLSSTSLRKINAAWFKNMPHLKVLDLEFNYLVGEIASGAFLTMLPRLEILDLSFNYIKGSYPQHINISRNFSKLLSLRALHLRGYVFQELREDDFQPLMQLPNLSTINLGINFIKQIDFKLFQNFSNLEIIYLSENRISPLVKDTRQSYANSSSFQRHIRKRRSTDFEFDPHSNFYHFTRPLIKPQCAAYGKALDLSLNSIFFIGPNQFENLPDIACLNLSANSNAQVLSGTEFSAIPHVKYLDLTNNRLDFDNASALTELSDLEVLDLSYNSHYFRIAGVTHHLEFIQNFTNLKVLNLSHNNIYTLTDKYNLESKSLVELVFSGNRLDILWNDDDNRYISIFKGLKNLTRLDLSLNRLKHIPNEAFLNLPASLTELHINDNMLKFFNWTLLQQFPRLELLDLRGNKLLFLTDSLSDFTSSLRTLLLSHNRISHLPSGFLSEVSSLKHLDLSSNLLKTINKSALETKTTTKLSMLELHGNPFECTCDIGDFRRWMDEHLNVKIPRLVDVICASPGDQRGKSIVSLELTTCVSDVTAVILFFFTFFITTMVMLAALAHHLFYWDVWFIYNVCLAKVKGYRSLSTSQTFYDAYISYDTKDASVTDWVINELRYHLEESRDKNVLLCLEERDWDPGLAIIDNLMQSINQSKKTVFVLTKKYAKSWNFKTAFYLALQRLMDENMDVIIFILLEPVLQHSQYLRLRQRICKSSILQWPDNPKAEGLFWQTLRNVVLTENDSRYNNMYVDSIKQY

Tests used:
TLR7 = TLR7 (Homo sapiens, UniProt Q9NYK1); experiment: TLR7 human PBMC cell-based assay (antagonist, GS-986 stimulated cytokine release); conditions: read-out: TLR-7 EC50; human PBMCs; TLR7 agonist GS-986 400 nM, 6 hours; cytokines (IL-6 and IFNα) in supernatant
From the text: (§1) Human peripheral blood mononuclear cells (PBMCs) consist of lymphocytes, monocytes and dendritic cells that express TLR7, TLR8 and TLR9. These cells respond to TLR7, TLR8 and TLR9 ligand stimulation and produce cytokines and chemokines in vitro and in vivo. Human PBMCs are therefore suitable to be used in a cell-based assay to assess the in vitro potency of a TLR 7, 8, and/or 9 antagonist. The result is expected to be more translatable to the pharmacodynamics response in vivo than cell line-based assays.
(§2) Cryopreserved human PBMCs from healthy donors were thawed and resuspended in RPMI-1640 media with L-glutamine (Corning) supplemented with 10% Fetal Bovine Serum (Hyclone) and 1× Penicillin-Streptomycin (Corning). After counting, the cell density was adjusted to 2 million cells/ml and incubated for 1 hour at 37° C., 5% CO2 for recovery. […] The level of cytokines (IL-6 and IFNα) in the supernatant was measured by electrochemiluminescence immunoassays (Mesoscale Discovery) following manufacturer's recommended protocols. The level of cytokine measured was plotted against the test antagonist concentration and fitted to a sigmoidal function to determine the EC50, which are shown below in Table 11.

TLR8 = TLR8 (Homo sapiens, UniProt Q9NR97); experiment: TLR8 human PBMC cell-based assay (antagonist, Compound A stimulated cytokine release); conditions: read-out: TLR-8 EC50; human PBMCs; TLR8 agonist Compound A 800 nM, 6 hours; cytokines (TNFa and IL 12p40) in supernatant
From the text: as §1
as §2, with “1X” for “1×”, “(TNFa” for “(IL-6”, “IL 12p40)” for “IFNα)”, “the” for “the test”

- EC50 (TLR7): 27.5 nM
- EC50 (TLR8): 274 nM
SMILES: Cc1cc(-c2[nH]c3cc(C4CCN(C(=O)C5CN(C)C5)CC4)sc3c2C(C)C)cn2ncnc12
